Target: α-synuclein fibrils (Homo sapiens (Human), UniProt P37840)
Assay: Thioflavin T fluorescence competitive assay
Conditions: read-out: Thioflavin T assay Ki; competition with ThT on recombinant α-synuclein fibrils; at least three experiments

Ki: > 1000 nM
SMILES: COc1ccc2nc(-c3noc(-c4cccnc4)n3)ccc2c1
